Laboratory results from patent US11160813B2, “Combination therapy for nonalcoholic steatohepatitis (NASH) and liver fibrosis” (Modunex Bio Corp., priority 2016, dated 2021).

Tested on: mouse model of NASH
Experiment: mouse model of NASH and fibrosis induced by streptozocin and high fat diet
Assay type: in vivo, C59BL/6J mice
Conditions: OCA, MVC, alone or together
Method: We have utilized a well validated mice model in which the NASH and fibrosis was induced by sequential induction of diabetes mellitus and a high fat diet (14). On day 2, C59BL/6J mice were injected with streptozocin, then treated with high fat diet from week 4 until week 9. The intervention treatment started from week 5 until week 9. On week 9, these mice were euthanized. The intervention of the NASH and its subsequent disease processes was performed by administration of CCR5 antagonist maraviroc at dose of 45 mg/kg once daily orally and 30 mg/kg of OCA once daily, either alone or in combination for 4 wks.
NAS scores were determined according to the consensus by Nonalcoholic Steatohepatitis Clinical Research Network (13)
Fibrosis scores were determined according to the consensus by Nonalcoholic Steatohepatitis Clinical Research Network (13).

For maraviroc [MVC], the “liver enzyme AST” value (FIG. 7A) was “not observed” and the “liver enzyme ALP” value (FIG. 8A) was “but not in mice treated with MVC”.
